Values quoted from earlier work as cited in patent publication US5419315A, “Intrapulmonary delivery of hormones” (Aradigm Corporation, priority 1994, dated 1995).

Details: nasal delivery

Q: For insulin, which local irritation is on record?
A: Local irritation has been seen
